For test [1], the target named is T1, rat mGlu1a receptor (Rattus norvegicus, UniProt P23385).
T1 construct: host or cells: CHO-dhfr- cells
The experiment in a line: [3H]Compound A binding to rat mGlu1a receptor CHO-dhfr− membranes (saturation, kinetics, inhibition).

Protein sequences, listed by entry. Tags and fused reporters are not part of them. Residues count along the entry.
UniProt P23385, 19-1199: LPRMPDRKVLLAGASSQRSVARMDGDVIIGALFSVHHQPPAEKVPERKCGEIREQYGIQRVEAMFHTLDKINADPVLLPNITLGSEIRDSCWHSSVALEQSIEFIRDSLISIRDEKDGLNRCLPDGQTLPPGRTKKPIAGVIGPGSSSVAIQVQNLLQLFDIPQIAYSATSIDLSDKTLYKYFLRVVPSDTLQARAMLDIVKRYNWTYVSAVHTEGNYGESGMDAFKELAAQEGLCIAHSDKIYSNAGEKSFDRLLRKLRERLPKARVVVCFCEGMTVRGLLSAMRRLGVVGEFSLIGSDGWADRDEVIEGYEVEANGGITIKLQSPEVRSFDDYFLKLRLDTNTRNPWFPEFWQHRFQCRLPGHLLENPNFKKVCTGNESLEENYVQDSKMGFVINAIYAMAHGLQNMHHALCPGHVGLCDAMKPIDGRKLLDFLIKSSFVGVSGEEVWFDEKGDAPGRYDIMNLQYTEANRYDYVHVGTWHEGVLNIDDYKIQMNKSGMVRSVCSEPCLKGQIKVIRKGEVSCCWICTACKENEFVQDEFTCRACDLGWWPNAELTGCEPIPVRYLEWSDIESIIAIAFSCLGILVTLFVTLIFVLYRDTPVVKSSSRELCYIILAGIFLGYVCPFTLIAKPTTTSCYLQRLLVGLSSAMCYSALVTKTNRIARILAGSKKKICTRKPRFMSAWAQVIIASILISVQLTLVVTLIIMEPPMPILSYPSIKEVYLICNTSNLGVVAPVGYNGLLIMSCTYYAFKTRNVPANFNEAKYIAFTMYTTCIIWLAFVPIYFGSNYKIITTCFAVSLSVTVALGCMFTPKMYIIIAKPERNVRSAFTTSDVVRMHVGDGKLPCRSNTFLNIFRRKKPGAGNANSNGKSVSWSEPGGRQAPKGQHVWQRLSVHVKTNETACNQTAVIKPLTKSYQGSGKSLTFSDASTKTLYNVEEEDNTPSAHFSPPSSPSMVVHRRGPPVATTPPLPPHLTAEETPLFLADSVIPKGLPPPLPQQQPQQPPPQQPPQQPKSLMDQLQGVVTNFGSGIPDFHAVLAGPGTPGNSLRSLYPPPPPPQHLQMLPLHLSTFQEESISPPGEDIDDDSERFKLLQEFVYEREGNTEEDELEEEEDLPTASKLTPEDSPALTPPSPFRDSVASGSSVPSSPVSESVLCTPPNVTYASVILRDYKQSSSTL

Test [2] addresses T1, rat mGlu1a receptor. The experiment in a line: [3H]quisqualate binding to rat mGlu1a receptor CHO-dhfr− membranes (saturation, inhibition).
For test [3], the target named is T2, cloned rat mGlu1 receptor (Rattus norvegicus, UniProt P23385).
T2 construct: expressed in transfected cells; host or cells: CHO cells
The test can be described thus: Signal transduction at the cloned rat mGlu1 receptor in CHO cells (glutamate-induced Ca2+ rise, FLIPR). It counts as cell-based.

The mark [4] stands for this setting: 50% inhibition of the glutamate-induced intracellular Ca2+ rise, CHO cells, FLIPR.
Where [5] appears, read: inhibition of glutamate-induced intracellular Ca2+ rise, CHO cells expressing mGlu1 receptor, compounds with pIC50 between 7 and 8.

Consider seven compounds from patent US7517517B2 (Janssen Pharmaceutica N.V., priority 2002, dated 2009).

For orientation: Ki means a measure of affinity in units of concentration, obtained from inhibition or displacement. As a reminder, the IC50 is the point on the concentration scale where inhibition reaches its midpoint.

On to `N[C@@]1(C(=O)O)CC[C@@H](C(=O)O)C1` [1S,3R-ACPD, reference compound], for which the Ki in test [1] (2.5 nM [3H]Compound A, 30 min at 4° C., mean ± SD of 3–4 experiments, read-out: Ki (nM), inhibition of [3H]Compound A-binding) is over 1e+06 nM; in test [2] (inhibition of [3H]quisqualate binding, rat mGlu1a receptor CHO-dhfr− membranes, mean ± SD of 2 experiments, read-out: Ki), 1.92 ± 0.2 µM. Regarding `CCc1cc2cc(C(=O)C3CCC(OC)CC3)ccc2nc1F` (stereo not drawn) [Compound 19], the IC50 in test [3] (setting [4]) was 0.00417 µM. That is a single-digit nanomolar value.

As for `CCCc1ccc2cc(C(=O)C3CCC(OC)CC3)ccc2n1` (stereo not drawn) [Compound 114], in test [3] (setting [4]), the 50% inhibitory concentration (IC50) is 0.00525 µM. Turning to `CCc1cc2cc(C(=O)[C@H]3CC[C@@H](O)CC3)ccc2nc1C` [Compound 182], half-maximal inhibition in test [3] (setting [5]) (IC50) required 0.0186 µM. With `COC1CCC(C(=O)c2ccc3nc4c(cc3c2)CCCN4C)CC1` (stereo not drawn) [Compound 208], the IC50 in test [3] (setting [4]) was 0.00804 µM. In turn, `CCCc1ccc2cc(C(=O)[C@H]3CC[C@H](OC)CC3)ccc2n1` [Compound 229] had a half-inhibitory concentration (IC50) in test [3] (setting [5]) of 0.0389 µM. For `N[C@@H](Cn1oc(=O)[nH]c1=O)C(=O)O` [quisqualate, reference compound], the Ki was over 1e+06 nM in test [1] and 0.03 µM in test [2].
